Earlier results, collected in patent publication US4245096A, “Bis-(2,4-dinitrophenyl)-methyl-pyridinium and quinolinium compounds” (dated 1981).
Some compounds may have been tested in ways that are not shown here.

Settings: known compounds, background

For hexanitrophenylmethane, the absorption is listed as “usable absorption” and the “solubility or pK value” is listed as “too low a solubility or too high a pK value”.
